From patent US12618044B2, “Specification of functional cranial placode derivatives from human pluripotent stem cells” (MEMORIAL SLOAN-KETTERING CANCER CENTER, priority 2013, dated 2026)

Test system: SIX1::GFP cells
Test: PIP-E6 pituitary induction and hormone release
Assay type: cell-based, human
Text: Induction of anterior pituitary gland cells: Pituitary placode cells were induced by culturing SIX1::GFP cells according to the PIP-E6 protocol, wherein pituitary factors SHH, FGF8, FGF10 and/or hypothalamus CM were supplemented in the culture media from days 6-15. […] The pituitary markers were expressed 10 to 100 fold greater than in placodes induced using the PIP-E6 protocol alone without supplementation. After differentiation to day 30 using the modified PIP-E6 protocol, pituitary placode cells differentiated into hormone expressing cells corresponding to derivatives of all three pituitary precursor lineages. (FIG. 64 and FIG. 65). […] (FIG. 65).
The hormone expressing cells were responsive to external stimuli. […] (FIG. 66). The pituitary cells induced according to the modified PIP-E6 protocol were cultured with BMP2 and/or FGF8 to determine whether such agents could manipulate the yield of pituitary cells expressing the subtype specific markers Tbx19, Pit1, GATA2, POMC1, GH1, FDHM, and LHB. […] (FIG. 67).
Induction of anterior pituitary gland cells: SIX1::GFP hPSCs were cultured according to a modified PIP-E6 protocol, wherein pituitary factors such as FGF8, FGF10 or SHH, etc., were included in the culture media from days 6-14. […]

B1: BMP2: pituitary patterning factor (protein, UniProt P12643 283-396, looked up)
Bone morphogenetic protein 2: QAKHKQRKRLKSSCKRHPLYVDFSDVGWNDWIVAPPGYHAFYCHGECPFPLADHLNSTNHAIVQTLVNSVNSKIPKACCVPTELSAISMLYLDENEKVVLKNYQDMVVEGCGCR
  yield of pituitary subtype specific markers: increase the yield
